Test results from patent US9546176B2, “Small molecule bicyclic and tricyclic CFTR correctors” (DISCOVERYBIOMED, INC., priority 2012, dated 2017).

The chains behind the UniProt entries cited, without tags or fusion partners. A line that says so, or that is headed by a name, gives the form on record, which may keep a tag or linker.
UniProt P13569, with tags, fused parts or gaps DEL508-508: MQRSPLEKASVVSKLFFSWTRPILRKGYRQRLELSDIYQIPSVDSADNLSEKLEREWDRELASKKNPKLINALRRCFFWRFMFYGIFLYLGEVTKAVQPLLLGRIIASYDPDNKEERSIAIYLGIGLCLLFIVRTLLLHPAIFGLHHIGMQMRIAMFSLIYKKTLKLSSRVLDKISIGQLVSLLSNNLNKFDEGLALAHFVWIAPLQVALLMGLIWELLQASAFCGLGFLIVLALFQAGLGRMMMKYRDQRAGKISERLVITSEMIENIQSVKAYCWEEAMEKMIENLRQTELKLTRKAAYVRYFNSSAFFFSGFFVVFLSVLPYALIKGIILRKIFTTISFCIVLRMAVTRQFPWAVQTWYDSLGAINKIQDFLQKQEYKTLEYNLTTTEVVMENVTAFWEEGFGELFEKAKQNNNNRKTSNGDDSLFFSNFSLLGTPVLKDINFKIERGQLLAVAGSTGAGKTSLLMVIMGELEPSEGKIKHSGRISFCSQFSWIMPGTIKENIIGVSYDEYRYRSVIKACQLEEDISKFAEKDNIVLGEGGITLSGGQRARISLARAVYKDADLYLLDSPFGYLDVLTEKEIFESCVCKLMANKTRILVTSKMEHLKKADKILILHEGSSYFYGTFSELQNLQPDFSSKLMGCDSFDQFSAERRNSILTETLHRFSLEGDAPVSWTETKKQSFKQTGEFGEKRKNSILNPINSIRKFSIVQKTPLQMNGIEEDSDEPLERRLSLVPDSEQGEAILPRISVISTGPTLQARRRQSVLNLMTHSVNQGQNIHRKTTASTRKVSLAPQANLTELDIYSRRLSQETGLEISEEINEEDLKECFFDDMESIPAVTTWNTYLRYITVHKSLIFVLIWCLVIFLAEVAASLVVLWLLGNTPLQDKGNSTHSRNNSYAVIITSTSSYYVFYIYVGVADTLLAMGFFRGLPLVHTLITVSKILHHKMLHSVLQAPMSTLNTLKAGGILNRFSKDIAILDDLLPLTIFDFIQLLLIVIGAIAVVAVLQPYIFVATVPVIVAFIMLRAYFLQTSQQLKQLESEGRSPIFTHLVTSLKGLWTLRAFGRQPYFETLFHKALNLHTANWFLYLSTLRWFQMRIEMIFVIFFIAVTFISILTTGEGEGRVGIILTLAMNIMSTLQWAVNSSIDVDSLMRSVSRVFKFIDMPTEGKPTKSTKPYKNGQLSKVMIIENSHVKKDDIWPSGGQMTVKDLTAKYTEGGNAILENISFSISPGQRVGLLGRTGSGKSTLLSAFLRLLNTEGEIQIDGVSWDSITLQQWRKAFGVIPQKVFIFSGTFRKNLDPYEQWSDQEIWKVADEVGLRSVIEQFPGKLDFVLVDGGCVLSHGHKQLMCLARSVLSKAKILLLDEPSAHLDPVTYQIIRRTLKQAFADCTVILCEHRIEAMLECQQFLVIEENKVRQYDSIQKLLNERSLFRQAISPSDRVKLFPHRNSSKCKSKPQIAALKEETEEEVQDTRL

Molecular target: delF508-CFTR (Homo sapiens, UniProt P13569, DEL508-508)
Test: SPQ halide-sensitive fluorescence dye assay for rescue of halide efflux (8-point concentration-response)
Assay type: cell-based
Conditions: CFBE41o- cells, 48 h
Method: The method of profiling can include detecting the rescue of halide efflux from a cell. The step of detecting a rescue of halide efflux from the cell can be monitored using the halide quenched dye 6-methoxy-N-(3-sulfopropyl)-quinolinium (SPQ, Molecular Probes Inc., Eugene, Oreg.). In this method, cells are treated with a compound as described herein for a period of time (e.g., 48 hours). The rescue or correction of halide efflux is then detected using the SPQ assay with the halide dye. […] Optionally, the halide efflux is chloride efflux. The method of screening can further comprise performing the method with multiple concentrations of the compound.
The compounds were initially subjected to the SPQ halide-sensitive fluorescence dye profiling assay for rescue or correction of membrane chloride ion permeability or transport with an 8-point concentration-response curve. The EC50 values for the compounds described herein were determined using SPQ (Table 1). The ΔSPQ value was calculated by determining the difference between the maximum and minimum SPQ values for the compounds.
To perform the SPQ high throughput screening assay, CFBE41o-cells were seeded into 96-well microtiter plates and were loaded with the fluorescent halide-sensitive dye, SPQ, in serum-containing culture medium. […] The plates were read twice over four minutes. […] The plate was read up to two times to complete the SPQ HTS assay.

SPQ EC50: No effect
Compound: Cn1c(=O)c2[nH]c(NCCN3CCOCC3)nc2n(C)c1=O
